{
  "source": "patent US12594283B2",
  "about": "(The Medical College of Wisconsin, Inc., priority 2019, dated 2026)",
  "origin": "cited, not measured here",
  "target": "T1, cyt bc1 (Plasmodium falciparum, UniProt Q02768)",
  "T1 sequence (Q02768 1-376)": "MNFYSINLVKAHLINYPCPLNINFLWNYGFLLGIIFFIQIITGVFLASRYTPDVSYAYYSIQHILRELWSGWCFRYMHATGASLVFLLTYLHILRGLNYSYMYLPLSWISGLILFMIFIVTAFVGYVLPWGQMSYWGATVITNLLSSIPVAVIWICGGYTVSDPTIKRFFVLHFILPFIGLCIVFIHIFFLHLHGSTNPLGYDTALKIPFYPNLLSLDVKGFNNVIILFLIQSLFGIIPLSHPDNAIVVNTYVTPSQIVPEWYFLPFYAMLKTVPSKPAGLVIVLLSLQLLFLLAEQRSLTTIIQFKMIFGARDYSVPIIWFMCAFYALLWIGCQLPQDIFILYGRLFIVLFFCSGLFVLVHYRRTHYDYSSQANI",
  "conditions": "read-out: IC50 for inhibition of cyt bc1; malarial parasites; cited from earlier work",
  "data": [
    {"compound": "O=C1C(O)=C([C@H]2CC[C@H](c3ccc(Cl)cc3)CC2)C(=O)c2ccccc21", "note": "[ATO, trans-2-[4-(4-chlorophenyl)cyclohexyl]-3-hydroxy-1,4-naphthalene-dione]", "values": [
      {"measurement": "IC50", "result": "~3", "unit": "nM"}
    ]}
  ]
}
